Tested on: CSML100 cells
Experiment: S100A4-positive lung metastasis tumor model, alone or in combinations (Example 25)
Type: in vivo, mouse
Settings: CSML100 i.v. in A/J mice; PTX i.v. 10 mg/kg on day 1, 4, 7; mean±SEM
Protocol: Amlexanox solution for injections was prepared according to the Example 4. […] The animals were then divided randomly into 9 groups (n=9 except for control group): 1) intact control (n=13, saline); 2) Amlexanox (i.v. 100 mg/kg); 3) Amlexanox ([…]. 3 mg/kg); 5) Amlexanox ([…]. 3 mg/kg); 6) Dox (i.v. 3 mg/kg); 7) Amlexanox (p.o. 200 mg/kg)+Dox (i.v. 3 mg/kg); 8) PTX (i.v. 10 mg/kg), and 9) Amlexanox ([…]. 10 mg/kg). […] The treatments were started on the day following the tumor cell implantation and continued for 10 consecutive days. Cytotoxic drugs, TPT, Dox or PTX, were administrated intravenously on day 1, 4, and 7 after tumor implantation. The animal body weight was recorded as an index of treatment toxicity during the experiment. The data in Table show metastasis development. The data are expressed as mean±SEM for the number of metastatic sites on the lung surface.

CC(=O)O[C@H]1C(=O)[C@@]2(C)[C@H]([C@H](OC(=O)c3ccccc3)[C@]3(O)C[C@H](OC(=O)[C@H](O)[C@@H](NC(=O)c4ccccc4)c4ccccc4)C(C)=C1C3(C)C)[C@]1(OC(C)=O)CO[C@@H]1C[C@@H]2O [PTX, paclitaxel]
Lung Metastasis Number per Animal: 40.8 ± 9.48

Source: US7772255B2, “Method of treating tumors with azaxanthones” (Supratek Pharma, Inc., priority 2005, dated 2010)
